Patent US10442819B2, “Tricyclic compounds as inhibitors of mutant IDH enzymes” (Merck Sharp & Dohme Corp., priority 2014, dated 2019)

Sequences of proteins named here, by UniProt entry; tags and fusion partners are left off.
UniProt O75874, whole entry R132H: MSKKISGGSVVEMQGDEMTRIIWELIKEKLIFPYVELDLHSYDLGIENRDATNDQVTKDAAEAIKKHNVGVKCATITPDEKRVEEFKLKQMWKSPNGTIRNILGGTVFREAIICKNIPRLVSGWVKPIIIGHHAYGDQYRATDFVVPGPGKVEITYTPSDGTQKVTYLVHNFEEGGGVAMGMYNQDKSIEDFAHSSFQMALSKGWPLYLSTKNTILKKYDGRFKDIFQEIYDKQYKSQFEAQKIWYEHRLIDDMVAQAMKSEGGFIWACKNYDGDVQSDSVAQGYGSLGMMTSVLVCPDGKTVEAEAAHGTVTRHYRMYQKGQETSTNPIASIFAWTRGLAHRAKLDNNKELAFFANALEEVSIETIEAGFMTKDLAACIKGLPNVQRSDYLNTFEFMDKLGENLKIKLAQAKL

Molecular target: R132H mutant IDH1 enzyme (Homo sapiens (Human), UniProt O75874, R132H)
Assay: R132H IDH1 Enzymatic Assay
Format: biochemical
Conditions: R132H mutant IDH1 enzyme 1.5 nM final; luminescence readout; read-out: IC50

| Compound | IC50 |
| --- | --- |
| CO[C@H]1C[C@H]2CC[C@@H](C1)N2c1ccc2c(c1)N(C(=O)[C@H]1CC[C@H](OC(C)C)CO1)Cc1cccnc1N2 [Example 161, ((2R,5S)-5-isopropoxytetrahydro-2H-pyran-2-yl)(8-((1R,3R,5S)-3-methoxy-8-azabicyclo[3.2.1]octan-8-yl)-5,11-dihydro-6H-benzo[b]pyrido[2,3-e][1,4]diazepin-6-yl)methanone] | 18 nM |
| CC(C)O[C@H]1CC[C@H](C(=O)N2Cc3cccnc3Nc3ccc(N4C5CCC4COC5)cc32)OC1 [Example 162, (8-(3-oxa-8-azabicyclo[3.2.1]octan-8-yl)-5,11-dihydro-6H-benzo[b]pyrido[2,3-e][1,4]diazepin-6-yl)((2R,5S)-5-isopropoxytetrahydro-2H-pyran-2-yl)methanone] | 49 nM |
| O=C([C@H]1CC[C@H](OCC(F)F)CC1)N1Cc2cccnc2Nc2ccc(N3CCOCC3)cc21 [Example 163, 6-{[trans-4-(2,2-difluoroethoxy)cyclohex-yl]carbonyl}-8-morpholin-4-yl-6,11-dihydro-5H-pyrido[2,3-b][1,5]benzodiazepine] | 117 nM |
| COC(C)(C)C1CC(C(=O)N2Cc3cccnc3Nc3ccc(N4CCOCC4)cc32)C1 (stereo not shown) [Example 164, 6-{[3-(1-methoxy-1-methylethyl)cyclobutyl]carbonyl}-8-morpholin-4-yl-6,11-dihydro-5H-pyrido[2,3-b][1,5]benzodiazepine] | 1330 nM |
| COC1CCCC(C(=O)N2Cc3cccnc3Nc3ccc(N4CCOCC4)cc32)CC1 (stereo not shown) [Example 165, 6-[(4-methoxycycloheptyl)car-bonyl]-8-morpholin-4-yl-6,11-dihydro-5H-pyrido[2,3-b][1,5]benzodiazepine] | 954 nM |
| CN1CC[C@@H](C(=O)N2Cc3cccnc3Nc3ccc(N4CCOCC4)cc32)C[C@H]1C(F)(F)F [Example 166, 6-{[(2S,4R)-1-methyl-2-(trifluoromethyl)piperidin-4-yl]carbonyl}-8-morpholin-4-yl-6,11-dihydro-5H-pyrido[2,3-b][1,5]benzodiazepine] | 557 nM |
| CO[C@H](C1CC1)[C@H]1CC[C@@H](C(=O)N2Cc3cccnc3Nc3ccc(N4CCOCC4)cc32)CC1 [Example 167, 6-({Cis-4-[(R)-cyclopropyl(methoxy)methyl]cyclohexyl}carbonyl)-8-morpholin-4-yl-6,11-dihydro-5H-pyrido[2,3-b][1,5]benzodiazepine] | 167 nM |
| CO[C@@H](C1CC1)[C@H]1CC[C@@H](C(=O)N2Cc3cccnc3Nc3ccc(N4CCOCC4)cc32)CC1 [Example 168, 6-({Cis-4-[(S)-cyclopropyl(methoxy)methyl]cyclohexyl}carbonyl)-8-morpholin-4-yl-6,11-dihydro-5H-pyrido[2,3-b][1,5]benzodiazepine] | 272 nM |
| CO[C@H](C1CC1)[C@H]1CC[C@H](C(=O)N2Cc3cccnc3Nc3ccc(N4CCOCC4)cc32)CC1 [Example 169, 6-({Trans-4-[(R)-cyclopropyl(methoxy)methyl]cyclohexyl}carbonyl)-8-morpholin-4-yl-6,11-dihydro-5H-pyrido[2,3-b][1,5]benzodiazepine] | 51 nM |
| CO[C@@H](C1CC1)[C@H]1CC[C@H](C(=O)N2Cc3cccnc3Nc3ccc(N4CCOCC4)cc32)CC1 [Example 170, 6-({Trans-4-[(S)-cyclopropyl(methoxy)methyl]cyclohexyl}carbonyl)-8-morpholin-4-yl-6,11-dihydro-5H-pyrido[2,3-b][1,5]benzodiazepine] | 70 nM |
| CC(C)O[C@H](C)[C@H]1CC[C@@H](C(=O)N2Cc3cccnc3Nc3ccc(N4CCOCC4)cc32)CC1 [Example 171, [8-(Morpholin-4-yl)-5,11-dihydro-6H-pyrido[2,3-b][1,5]benzodiazepin-6-yl]{cis-4-[(1R)-1-(propan-2-yloxy)ethyl]cyclohexyl}methanone] | 121 nM |
| CC(C)O[C@@H](C)[C@H]1CC[C@@H](C(=O)N2Cc3cccnc3Nc3ccc(N4CCOCC4)cc32)CC1 [Example 172, [8-(Morpholin-4-yl)-5,11-dihydro-6H-pyrido[2,3-b][1,5]benzodiazepin-6-yl]{cis-4-[(1S)-1-(propan-2-yloxy)ethyl]cyclohexyl}methanone] | 168 nM |
| CC(C)O[C@H](C)[C@H]1CC[C@H](C(=O)N2Cc3cccnc3Nc3ccc(N4CCOCC4)cc32)CC1 [Example 173, [8-(Morpholin-4-yl)-5,11-dihydro-6H-pyrido[2,3-b][1,5]benzodiazepin-6-yl]{trans-4-[(1R)-1-(propan-2-yloxy)ethyl]cyclohexyl}methanone] | 144 nM |
| CC(C)O[C@@H](C)[C@H]1CC[C@H](C(=O)N2Cc3cccnc3Nc3ccc(N4CCOCC4)cc32)CC1 [Example 174, [8-(Morpholin-4-yl)-5,11-dihydro-6H-pyrido[2,3-b][1,5]benzodiazepin-6-yl]{trans-4-[(1S)-1-(propan-2-yloxy)ethyl]cyclohexyl}methanone] | 120 nM |
| CO[C@H]1CC[C@H](C(=O)N2Cc3cccnc3Nc3ccc(-c4cncs4)cc32)CC1 [Example 177, 6-[(Trans-4-methoxycyclohexyl)carbonyl]-8-(1,3-thiazol-5-yl)-6,11-dihydro-5H-pyrido[2,3-b][1,5]benzodiazepine] | 69 nM |
| COc1cncc(-c2ccc3c(c2)N(C(=O)[C@H]2CC[C@H](OC)CC2)Cc2cccnc2N3)c1 [Example 178, 6-[(trans-4-methoxycyclohexyl)carbonyl]-8-(5-methoxypyridin-3-yl)-6,11-dihydro-5H-pyrido[2,3-b][1,5]benzodiazepine] | 152 nM |

| Compound | IC50 |
| --- | --- |
| COc1cnccc1-c1ccc2c(c1)N(C(=O)[C@H]1CC[C@H](OC)CC1)Cc1cccnc1N2 [Example 179, 6-[(trans-4-methoxycyclohexyl)carbonyl]-8-(3-methoxypyridin-4-yl)-6,11-dihydro-5H-pyrido[2,3-b][1,5]benzodiazepine] | 41 nM |
| CCOc1cncc(-c2ccc3c(c2)N(C(=O)[C@H]2CC[C@H](OC)CC2)Cc2cccnc2N3)c1 [Example 180, 8-(5-ethoxypyridin-3-yl)-6-[(trans-4-methoxycyclohexyl)carbonyl]-6,11-dihydro-5H-pyrido[2,3-b][1,5]benzodiazepine] | 212 nM |
| COc1ccc(-c2ccc3c(c2)N(C(=O)[C@H]2CC[C@H](OC)CC2)Cc2cccnc2N3)c(C)n1 [Example 181, 6-[(trans-4-methoxycyclohexyl)carbonyl]-8-(6-methoxy-2-methylpyridin-3-yl)-6,11-dihydro-5H-pyrido[2,3-b][1,5]benzodiazepine] | 105 nM |
| CO[C@H]1CC[C@H](C(=O)N2Cc3cccnc3Nc3ccc(-c4ccnn4C)cc32)CC1 [Example 182, 6-[(trans-4-methoxycyclohexyl)carbonyl]-8-(1-methyl-1H-pyrazol-5-yl)-6,11-dihydro-5H-pyrido[2,3-b][1,5]benzodiazepine] | 164 nM |
| CO[C@H]1CC[C@H](C(=O)N2Cc3cccnc3Nc3ccc(-c4cnn(C)c4)cc32)CC1 [Example 183, 6-[(trans-4-methoxycyclohexyl)carbonyl]-8-(1-methyl-1H-pyrazol-4-yl)-6,11-dihydro-5H-pyrido[2,3-b][1,5]benzodiazepine] | 139 nM |
| CO[C@H]1CC[C@H](C(=O)N2Cc3cccnc3Nc3ccc(-c4ccn(C)n4)cc32)CC1 [Example 184, 6-[(trans-4-methoxycyclohexyl)carbonyl]-8-(1-methyl-1H-pyrazol-3-yl)-6,11-dihydro-5H-pyrido[2,3-b][1,5]benzodiazepine] | 556 nM |
| CO[C@H]1CC[C@H](C(=O)N2Cc3cccnc3Nc3ccc(-c4ccncc4)cc32)CC1 [Example 185, 6-[(trans-4-methoxycyclohexyl)carbonyl]-8-pyridin-4-yl-6,11-dihydro-5H-pyrido[2,3-b][1,5]benzodiazepine] | 107 nM |
| CO[C@H]1CC[C@H](C(=O)N2Cc3cccnc3Nc3ccc(-c4cnc(C)n4C)cc32)CC1 [Example 186, 8-(1,2-dimethyl-1H-imidazol-5-yl)-6-[(trans-4-methoxycyclohexyl)carbonyl]-6,11-dihydro-5H-pyrido[2,3-b][1,5]benzodiazepine] | 617 nM |
| CO[C@H]1CC[C@H](C(=O)N2Cc3cccnc3Nc3ccc(-c4cncn4C)cc32)CC1 [Example 187, 6-[(trans-4-methoxycyclohexyl)carbonyl]-8-(1-methyl-1H-imidazol-5-yl)-6,11-dihydro-5H-pyrido[2,3-b][1,5]benzodiazepine] | 203 nM |
| CC(C)OC1CCC(C(=O)N2Cc3cccnc3Nc3ccc(-c4ccc(C(N)=O)nc4)cc32)CC1 (stereo not shown) [Example 189, 5-(6-{[4-(Propan-2-yloxy)cyclohexyl]carbonyl}-6,11-dihydro-5H-pyrido[2,3-b][1,5]benzodiazepin-8-yl)pyridine-2-carboxamide] | 28 nM |
| CC1(C)CC(C(=O)N2Cc3cccnc3Nc3ccc(N4CCC45CNC5)cc32)C1 [Example 190, 8-(1,6-Diazaspiro[3.3]hept-1-yl)-6-[(3,3-dimethylcyclobutyl)carbonyl]-6,11-dihydro-5H-pyrido[2,3-b][1,5]benzodiazepine] | 3720 nM |
| CC1(C)CC(C(=O)N2Cc3cccnc3Nc3ccc(N4CC5CCC4CN5C(=O)OC(C)(C)C)cc32)C1 (stereo not shown) [Example 193, tert-butyl 5-{6-[(3,3-dimethylcyclobutyl)carbonyl]-6,11-dihydro-5H-pyrido[2,3-b][1,5]benzodiazepin-8-yl}-2,5-diazabicyclo[2.2.2]octane-2-carboxylate] | 125 nM |
| CC1(C)CC(C(=O)N2Cc3cccnc3Nc3ccc(N4CC5CCC4CN5)cc32)C1 (stereo not shown) [Example 194, 8-(2,5-diazabicyclo[2.2.2]oct-2-yl)-6-[(3,3-dimethylcyclobutyl)carbonyl]-6,11-dihydro-5H-pyrido[2,3-b][1,5]benzodiazepine] | 1040 nM |
| C[C@H]1CC(F)(F)CC[C@@H]1C(=O)N1Cc2cccnc2Nc2ccc(N3CCC(F)(F)CC3)cc21 [Example 195, 6-{[(1S,2S)-4,4-difluoro-2-methylcyclohexyl]carbonyl}-8-(4,4-difluoropiperidin-1-yl)-6,11-dihydro-5H-pyrido[2,3-b][1,5]benzodiazepine] | 194 nM |
| CC1CC(F)(F)CCC1C(=O)N1Cc2cccnc2Nc2ccc(N3CCC(F)(F)CC3)cc21 (stereo not shown) [Example 196, 6-[(4,4-difluoro-2-methylcyclohexyl)carbonyl]-8-(4,4-difluoropiperidin-1-yl)-6,11-dihydro-5H-pyrido[2,3-b][1,5]benzodiazepine] | 614 nM |
